“Also recorded” adds a separate entry of the source.
Molecular target: T1, Dpp4 (Mus musculus, UniProt P28843)
T1 construct: 0.01 mg/g body weight Sitagliptin was administrated to plugged female by gavage at E11.5, E12.5 and E13.5; from tissue; host or cells: Mouse embryos in utero (Wt1CreERT2; Lats1/2 f/f and controls); hearts examined at E14.5
Assay: Sitagliptin treatment of Lats1/2 CKO embryos; coronary vessel pattern by Pecam-1 staining and AngioTool quantification
Type: in vivo

By UniProt entry, the sequences of proteins in these tests, tags left out. Where a name states a change or a piece, a line headed by the entry shows the natural chain unless it says otherwise.
UniProt P28843: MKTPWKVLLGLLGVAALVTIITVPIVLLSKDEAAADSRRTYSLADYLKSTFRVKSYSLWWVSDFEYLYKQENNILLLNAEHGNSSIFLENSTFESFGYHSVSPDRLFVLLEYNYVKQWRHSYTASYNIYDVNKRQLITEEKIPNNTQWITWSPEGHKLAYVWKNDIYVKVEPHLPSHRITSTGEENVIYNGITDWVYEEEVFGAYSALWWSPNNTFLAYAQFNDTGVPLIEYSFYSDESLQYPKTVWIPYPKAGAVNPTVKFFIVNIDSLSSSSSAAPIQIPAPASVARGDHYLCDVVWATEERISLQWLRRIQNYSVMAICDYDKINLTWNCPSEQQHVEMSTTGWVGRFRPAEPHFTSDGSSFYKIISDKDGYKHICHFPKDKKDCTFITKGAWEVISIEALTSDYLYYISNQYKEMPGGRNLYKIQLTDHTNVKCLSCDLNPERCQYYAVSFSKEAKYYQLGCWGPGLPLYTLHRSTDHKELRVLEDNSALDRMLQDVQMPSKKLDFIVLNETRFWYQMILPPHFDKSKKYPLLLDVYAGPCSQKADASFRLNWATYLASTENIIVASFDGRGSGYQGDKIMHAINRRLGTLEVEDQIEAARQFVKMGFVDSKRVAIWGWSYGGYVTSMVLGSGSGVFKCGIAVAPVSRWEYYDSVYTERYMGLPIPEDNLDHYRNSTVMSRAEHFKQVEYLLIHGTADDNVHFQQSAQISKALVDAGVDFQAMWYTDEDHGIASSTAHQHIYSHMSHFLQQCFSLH

[1] = Lats1/2 CKO E14.5 hearts treated with Sitagliptin versus controls, Pecam-1 IF
[2] = Lats1/2 CKO E14.5 hearts treated with Sitagliptin, Pecam-1

## N[C@@H](CC(=O)N1CCn2c(nnc2C(F)(F)F)C1)Cc1cc(F)c(F)cc1F [Sitagliptin, Sitagliptin phosphate]
[1]
  mean lacunarity (Mean E lacunarity): suppressed; also recorded: no difference
  vessel percentage area: suppressed; also recorded: no difference
[2]
  blood islands, ventral side of heart: some blood islands still appeared
  dorsal side vessel coverage phenotype: suppressed; also recorded: comparable vessel coverage

From patent publication US12268704B2, “Hippo regulation of cardiac vascularity, fibrosis, and inflammation” (Baylor College of Medicine, priority 2018, dated 2025)
